Biological target: MAb AP33 (broadly neutralizing mouse monoclonal antibody) (mouse)
Test: SPR

Chains of the proteins cited; added tags and fusions are not shown. A line that says so, or that is headed by a name, gives the form on record, which may keep a tag or linker.
MAb AP33 (broadly neutralizing mouse monoclonal antibody) (mouse), light, as listed by the source, chain 2 of 2: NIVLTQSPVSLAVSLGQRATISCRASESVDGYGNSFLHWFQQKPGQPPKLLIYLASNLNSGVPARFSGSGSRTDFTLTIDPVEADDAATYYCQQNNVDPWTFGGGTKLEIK

Substance	Kd [nM]
C-epitope I (cyclic peptide containing HCV E2 residues 412 to 422)	71.1
L-epitope I (linear variant of C-epitope I, cysteines methylated) (peptide)	0.535
